Test [1] concerns the target Glutamate carboxypeptidase 2 (Rattus norvegicus) (UniProt P70627). The experiment in a line: Percentage inhibition at 1 uM against rat Glutamate carboxypeptidase II, using a substrate concentration of 5 uM.
Test [2] has the same target. To be noted: 100 uM.

Sequences of proteins named here, by UniProt entry; tags and fusion partners are left off.
UniProt P70627, whole entry, looked up: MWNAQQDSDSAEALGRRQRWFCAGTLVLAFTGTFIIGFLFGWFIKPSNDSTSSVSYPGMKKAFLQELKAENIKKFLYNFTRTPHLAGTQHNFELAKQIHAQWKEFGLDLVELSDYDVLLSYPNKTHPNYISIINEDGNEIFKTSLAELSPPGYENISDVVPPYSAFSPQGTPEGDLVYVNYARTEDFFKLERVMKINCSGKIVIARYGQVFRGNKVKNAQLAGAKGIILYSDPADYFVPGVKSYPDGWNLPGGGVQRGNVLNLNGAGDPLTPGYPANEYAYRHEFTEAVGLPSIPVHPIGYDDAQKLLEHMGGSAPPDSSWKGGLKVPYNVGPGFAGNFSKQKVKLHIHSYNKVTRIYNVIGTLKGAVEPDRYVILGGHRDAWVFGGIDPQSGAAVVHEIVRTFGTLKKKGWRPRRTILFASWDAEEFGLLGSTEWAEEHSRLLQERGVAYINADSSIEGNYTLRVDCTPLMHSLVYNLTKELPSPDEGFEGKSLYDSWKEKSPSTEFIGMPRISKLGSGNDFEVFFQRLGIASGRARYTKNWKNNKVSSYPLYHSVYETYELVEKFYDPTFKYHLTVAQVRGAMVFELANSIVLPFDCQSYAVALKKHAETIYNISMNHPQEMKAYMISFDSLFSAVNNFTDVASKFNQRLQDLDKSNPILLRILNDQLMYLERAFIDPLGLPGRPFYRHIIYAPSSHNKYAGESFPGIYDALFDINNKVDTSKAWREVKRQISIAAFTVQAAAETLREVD

Usually inhibition stands for how much of the control response was suppressed. Read a high inhibition as a response far below the control.

`O=C(O)CC[C@H](NC(=O)N[C@H](CCC(=O)O)C(=O)O)C(=O)O` displayed an inhibition in test [1] of 25%.
As to `O=C(O)CC[C@@H](NC(=O)N[C@H](CCC(=O)O)C(=O)O)C(=O)O`, the inhibition in test [2] was determined as 67%.

The values above are taken from ChEMBL document CHEMBL1134332, “Design of remarkably simple, yet potent urea-based inhibitors of glutamate carboxypeptidase II (NAALADase)” (J Med Chem, 2001).
